According to ChEMBL document CHEMBL1131119, “N'-Phenylindol-3-ylglyoxylohydrazide derivatives: synthesis, structure-activity relationships, molecular modeling studies, and pharmacological action on brain benzodiazepine receptors” (J Med Chem, 1998):

Molecular target: GABA-A receptor; anion channel
Format: cell membranes, Bos taurus, Brain membranes

Which Ki does the source give for `O=C1CN=C(c2ccccc2Cl)c2cc([N+](=O)[O-])ccc2N1` [CLONAZEPAM] here?
The Ki was 850 pM.
